# System: Wistar rats
# Assay: Catalepsy (CAT) measurements on inclined grid in rats
# Conditions: idazoxan 1.5 mg/kg s.c.; for CAT rating ± semi-interquartile range: score 0-5, 8 animals per group
smiles,measurement,setting,value
Cc1cc2c(s1)Nc1ccccc1N=C2N1CCN(C)CC1 [olanzapine],CAT rating ± semi-interquartile range,0.5 hrs after olanzapine 2.5 mg/kg i.p.,1 ± 2.0
same,CAT rating ± semi-interquartile range,1 hr after olanzapine 2.5 mg/kg i.p.,1.5 ± 2.0
same,CAT rating ± semi-interquartile range,2 hrs after olanzapine 2.5 mg/kg i.p.,1 ± 0.5
same,Catalepsy compared to vehicle treated controls (in words),"olanzapine 2.5 mg/kg i.p., alone or in combination",did not produce any significant catalepsy

# Source: patent US20060281735A1, “Antipsychotic combination therapies and compositions of an alpha-2 adrenergic receptor antagonist and an atypical antipsychotic neuroleptic” (priority 2002, published 2006)
